Test results as given in ChEMBL document CHEMBL3856182, “How much successful are the medicinal chemists in modulation of SIRT1: A critical review” (Eur J Med Chem, 2016).

Sequences of proteins named here, by UniProt entry; tags and fusion partners are left off. A change or cut given only in a name is not applied to a line headed by its entry.
UniProt P06700: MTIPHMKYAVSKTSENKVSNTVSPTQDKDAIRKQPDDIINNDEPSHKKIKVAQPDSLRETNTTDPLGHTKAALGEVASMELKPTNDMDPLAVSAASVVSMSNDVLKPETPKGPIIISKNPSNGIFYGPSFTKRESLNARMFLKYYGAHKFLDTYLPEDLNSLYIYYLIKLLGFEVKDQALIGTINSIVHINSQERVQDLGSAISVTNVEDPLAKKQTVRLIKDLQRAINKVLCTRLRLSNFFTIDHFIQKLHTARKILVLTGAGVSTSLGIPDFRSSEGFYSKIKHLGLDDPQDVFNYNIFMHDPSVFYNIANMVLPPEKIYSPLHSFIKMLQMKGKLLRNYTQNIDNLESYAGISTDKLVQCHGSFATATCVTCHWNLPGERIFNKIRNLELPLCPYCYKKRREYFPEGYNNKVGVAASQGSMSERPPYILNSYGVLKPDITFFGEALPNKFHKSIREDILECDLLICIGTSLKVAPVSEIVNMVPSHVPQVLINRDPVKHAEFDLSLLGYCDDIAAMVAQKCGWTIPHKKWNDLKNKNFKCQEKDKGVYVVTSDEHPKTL

Molecular target: NAD-dependent histone deacetylase SIR2 (Saccharomyces cerevisiae S288c, UniProt P06700)
Experiment: Inhibition of recombinant yeast Sir2p using acetylated HeLa histones as substrate measured after 2 hrs in presence of NAD by scintillation counting method

SMILES: CC(NC(=O)c1ccccc1/N=C/c1c(O)ccc2ccccc12)c1ccccc1 (stereo unspecified) [SIRTINOL]
- IC50: 68 µM
